Reference: patent publication US10328116B2, “Combinations of proteasome inhibitors and cyclic peptides” (BIG DNA LTD, priority 2014, dated 2019)

Tested on: T47D breast cancer cell line
Experiment: Sulforhodamine B viability, isobologram and combination index in T47D cells (Examples 4-5)
Description: For assessment of combined BTZ and cilengitide toxicity, T47D cells were seeded at a density of 7500 cells/cm^2 in 96-well cell culture plates and incubated for 24 hours. Cilengitide was diluted to 20 μM in complete DMEM, then 3 serial tenfold dilutions of this were performed in complete DMEM (2 μM, 200 nM and 20 nM). Complete DMEM containing no cilengitide was provided for negative controls.
These dilutions (or DMSO for wells containing no BTZ) were added to aliquots of complete DMEM containing 0-20 μM cilengitide for a 1/150 dilution. Aliquots (0.1 mL) of each mixture were added to wells already containing 0.1 mL medium (in duplicate), resulting in a matrix of cilengitide (10 nM-10 μM) and/or BTZ (1 nM-10 μM) or neither agent (diluent only).
OD570nm readings were divided by those resulting from negative control (diluent only) wells and expressed as a percentage. Three independent replicates of this experiment were carried out.
The isoboles were obtained similarly by extrapolation of points representing 50% reduction in viability from line graphs of % viability versus concentration of one agent at variable concentration with the other agent supplied at a fixed concentration. […]

## CC(C)C[C@H](NC(=O)[C@H](Cc1ccccc1)NC(=O)c1cnccn1)B(O)O [Bortezomib]
Homo sapiens, 24 h, read-out: viability compared with the untreated controls
  viability at 0.01 µM: 80%
Single agent at its IC50
  CI (combination index): 1.00
